Measured values taken from PubChem BioAssay AID1317 (The Scripps Research Institute Molecular Screening Center, 2008).
The entries are a selection whose mix differs from that of the whole data set. Activity calls are given as the source filed them.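 Rule for the calls: active = inhibition above the mean plus 3 SD of solvent-only control wells, limit set per screening run (cut at about 16% in these data); inactive = the rest.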

Assay: inhibition of STAT1-driven transcription – cell-based, NIH 3T3, luciferase luminescence, IFN-gamma, counter-screen for STAT3 inhibitor project, confirmation (AID 1317);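 note: 0% = DMSO with IFN-gamma and 100% = nifuroxazide control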
Conditions: NIH 3T3 STAT1-luciferase reporter, IFN-gamma induced, at 5.7 µM, stronger effect = higher value
In the case of O=c1c2cc([N+](=O)[O-])ccc2[nH]c2c([N+](=O)[O-])cc([N+](=O)[O-])cc12, the inhibition is reported as inactive: 15.3%.
